Where two headings read alike, the source gives them in different places.

In the assay the test system is G93A SOD1 transgenic mouse model for ALS. The conditions noted are these: untreated 126.4+/−4.2.

Turning to `O=C1CC(=O)CC(c2cc(C(F)(F)F)cc(C(F)(F)F)c2)C1` [Compound 26], the “survival (Kaplan-Meier)” value runs as follows: (Group 1, 1 mg/kg ip once a day) 128.9+/−6.1; (Group 2, 10 mg/kg ip once a day) 130.5+/−5.8; (Group 3, 20 mg/kg ip once a day) 132.3+/−4.7.

Source of the values: PMC3259267 (Bioorganic & medicinal chemistry, 2011).
